For four compounds, Ki results are on record in patent publication EP1214299B1, “MUSCARINIC ANTAGONISTS” (SCHERING CORPORATION, priority 1999, dated 2001).

The chains behind the UniProt entries cited, without tags or fusion partners. Where a name states a change or a piece, a line headed by the entry shows the natural chain unless it says otherwise.
UniProt P08912, whole entry: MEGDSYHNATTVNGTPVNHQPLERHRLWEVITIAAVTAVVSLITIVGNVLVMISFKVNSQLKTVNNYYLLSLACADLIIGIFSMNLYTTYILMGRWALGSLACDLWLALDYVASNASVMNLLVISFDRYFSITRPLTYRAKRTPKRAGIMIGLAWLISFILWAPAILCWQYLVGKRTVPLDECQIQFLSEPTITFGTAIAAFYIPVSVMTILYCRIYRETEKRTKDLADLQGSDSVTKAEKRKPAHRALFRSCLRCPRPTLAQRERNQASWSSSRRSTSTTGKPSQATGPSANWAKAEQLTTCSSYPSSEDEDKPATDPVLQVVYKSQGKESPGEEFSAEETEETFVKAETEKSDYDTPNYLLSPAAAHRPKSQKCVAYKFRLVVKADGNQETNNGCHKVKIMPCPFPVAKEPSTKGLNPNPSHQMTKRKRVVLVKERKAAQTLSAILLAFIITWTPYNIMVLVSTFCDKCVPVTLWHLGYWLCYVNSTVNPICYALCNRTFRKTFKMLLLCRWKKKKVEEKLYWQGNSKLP
UniProt P20309, whole entry: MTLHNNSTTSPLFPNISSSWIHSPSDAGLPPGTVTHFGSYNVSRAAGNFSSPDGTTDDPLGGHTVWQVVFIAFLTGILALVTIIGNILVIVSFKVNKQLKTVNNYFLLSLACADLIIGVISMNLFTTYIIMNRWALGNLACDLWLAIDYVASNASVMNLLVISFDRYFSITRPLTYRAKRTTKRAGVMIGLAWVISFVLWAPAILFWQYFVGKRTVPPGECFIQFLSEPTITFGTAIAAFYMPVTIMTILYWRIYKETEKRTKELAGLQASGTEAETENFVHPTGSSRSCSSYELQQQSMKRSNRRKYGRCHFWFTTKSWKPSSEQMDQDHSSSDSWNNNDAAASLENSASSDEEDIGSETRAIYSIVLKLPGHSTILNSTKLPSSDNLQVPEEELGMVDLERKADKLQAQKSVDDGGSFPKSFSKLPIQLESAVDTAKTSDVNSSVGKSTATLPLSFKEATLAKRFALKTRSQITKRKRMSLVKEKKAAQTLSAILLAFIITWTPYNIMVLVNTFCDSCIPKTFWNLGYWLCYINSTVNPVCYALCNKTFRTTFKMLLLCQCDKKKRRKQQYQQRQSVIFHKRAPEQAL
UniProt P11229: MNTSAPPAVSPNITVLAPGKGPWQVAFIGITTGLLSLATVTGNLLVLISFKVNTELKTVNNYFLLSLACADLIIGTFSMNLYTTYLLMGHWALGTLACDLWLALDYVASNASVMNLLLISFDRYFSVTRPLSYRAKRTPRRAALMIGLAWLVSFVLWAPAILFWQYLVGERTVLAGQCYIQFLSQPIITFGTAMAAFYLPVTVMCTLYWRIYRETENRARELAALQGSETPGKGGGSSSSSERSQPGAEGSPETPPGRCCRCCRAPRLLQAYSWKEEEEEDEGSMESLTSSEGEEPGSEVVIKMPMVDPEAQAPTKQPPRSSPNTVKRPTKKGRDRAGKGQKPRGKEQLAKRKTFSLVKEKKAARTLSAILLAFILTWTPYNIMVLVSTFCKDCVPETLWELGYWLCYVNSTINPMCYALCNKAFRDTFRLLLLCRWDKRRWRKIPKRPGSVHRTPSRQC
UniProt P08172, whole entry: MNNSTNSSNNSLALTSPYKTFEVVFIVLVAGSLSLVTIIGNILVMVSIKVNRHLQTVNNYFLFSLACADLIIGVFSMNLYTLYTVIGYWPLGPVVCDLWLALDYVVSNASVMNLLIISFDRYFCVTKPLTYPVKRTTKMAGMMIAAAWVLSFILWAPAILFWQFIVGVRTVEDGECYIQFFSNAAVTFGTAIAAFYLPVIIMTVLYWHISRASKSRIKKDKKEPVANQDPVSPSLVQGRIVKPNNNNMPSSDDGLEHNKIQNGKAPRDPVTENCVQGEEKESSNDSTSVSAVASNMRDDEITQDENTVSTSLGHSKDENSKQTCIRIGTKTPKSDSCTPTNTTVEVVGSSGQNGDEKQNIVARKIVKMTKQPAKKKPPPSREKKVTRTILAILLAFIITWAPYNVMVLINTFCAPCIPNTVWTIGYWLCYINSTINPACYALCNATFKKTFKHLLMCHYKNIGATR
UniProt P08173, whole entry: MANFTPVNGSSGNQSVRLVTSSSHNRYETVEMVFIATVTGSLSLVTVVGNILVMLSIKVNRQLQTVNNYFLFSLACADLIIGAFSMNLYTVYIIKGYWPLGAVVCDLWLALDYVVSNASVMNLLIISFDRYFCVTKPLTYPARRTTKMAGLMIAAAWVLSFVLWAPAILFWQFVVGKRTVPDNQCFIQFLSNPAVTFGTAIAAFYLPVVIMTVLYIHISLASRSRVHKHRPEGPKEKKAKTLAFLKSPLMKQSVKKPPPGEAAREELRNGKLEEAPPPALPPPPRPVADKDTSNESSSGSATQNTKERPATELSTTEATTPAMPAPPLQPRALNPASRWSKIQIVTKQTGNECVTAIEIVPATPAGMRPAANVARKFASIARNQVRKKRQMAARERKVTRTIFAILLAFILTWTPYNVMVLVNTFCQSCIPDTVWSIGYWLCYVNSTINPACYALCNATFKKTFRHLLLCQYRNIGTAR

Assay in all cases: biochemical
In one assay the target is m5 (Homo sapiens, UniProt P08912).
For assay [1], the target named is human m3 muscarinic receptor (Homo sapiens, UniProt P20309).
Assay [2] concerns the target human m1 muscarinic receptor (Homo sapiens, UniProt P11229). The class given is binding.
In assay [3] the target is human m2 muscarinic receptor (Homo sapiens, UniProt P08172).
Assay [4] deals with human m4 muscarinic receptor (Homo sapiens, UniProt P08173). The format is binding.

A word on the Ki: it is the equilibrium dissociation constant of an inhibitor or competing ligand from its target. Low readings indicate tighter binding, high ones weaker binding. For `COc1ccc(S(=O)(=O)c2ccc(C3(C4CCN(C5CCN(C(=O)c6cccc(F)c6N)CC5)CC4)OCCO3)cc2)cc1` [Example 2F], the inhibition constant Ki was determined as 16.8 nM on m5; 56.5 nM in assay [1]; 145 nM in assay [2]; 0.513 nM in assay [3]; 9.75 nM in assay [4].

Turning to `COc1ccc(S(=O)(=O)c2ccc(C3(C4CCN(C5CCN(C(=O)c6cccc(C)c6N)CC5)CC4)OCCO3)cc2)cc1` [Example 2], the inhibition constant Ki on m5 was found to be 22.4 nM; in assay [1], 97.2 nM; in assay [2], 242 nM; in assay [3], 0.389 nM; in assay [4] it was 13.5 nM.

On to `Nc1cc(F)ccc1C(=O)N1CCC(N2CCC(C3(c4ccc(S(=O)(=O)c5cccc(Cl)c5)cc4)OCCO3)CC2)CC1` [Example 3E], for which the inhibition constant Ki on m5 was 4 nM; in assay [1], 16 nM; in assay [2], 42.8 nM; in assay [3] it was 0.115 nM; in assay [4], 5.36 nM.

`Nc1ccccc1C(=O)N1CCC(N2CCC(Cc3ccc(S(=O)(=O)c4cccc(Cl)c4)cc3)CC2)CC1` [Example 7A]: the inhibitory constant (Ki) turned out to be 41.8 nM at m5 and 612 nM in assay [1].
